Assay: cells
Type: cell-based
Conditions: MDCK

## COCCN1CN(C(c2ccccc2)c2ccccc2)n2c(CC#N)cc(=O)c(OCc3ccccc3)c2C1=O
  IC50: 233 nM

## CC(=O)OCCN1C(=O)c2c(O)c(=O)ccn2N(C2c3ccccc3CCc3ccccc32)C1CN1C(=O)c2ccccc2C1O (centres undefined)
  IC50: 76 nM

## CC(C)N1C(=O)c2c(OCc3ccccc3)c(=O)ccn2NC1CO[Si](C)(C)C(C)(C)C (centres undefined)
  IC50: 32 nM

## C[C@@H](N1CN([C@@H]2c3ccccc3SCc3c2cccc3C(F)(F)F)n2ccc(=O)c(OCc3ccccc3)c2C1=O)C(F)(F)F
  IC50: 29 nM

## COC(=O)c1cn([C@H](CNC(=O)OC(C)(C)C)C2c3ccccc3CSc3ccccc32)c(C(=O)OC)c(OCc2ccccc2)c1=O (some centres undefined)
  IC50: 73 nM

## NN1CC(C2c3ccccc3CCc3ccccc32)n2ccc(=O)c(OCc3ccccc3)c2C1=O (centres undefined)
  IC50: 65 nM

## COCCC1Nn2ccc(=O)c(OCc3ccccc3)c2C(=O)N1CCO[Si](C)(C)C(C)(C)C (centres undefined)
  IC50: 230 nM

## CC(C)N1C(=O)c2c(O)c(=O)ccn2N(C2c3ccccc3CCc3ccccc32)C1CN1C(=O)c2ccccc2C1=O (centres undefined)
  IC50: 98 nM

## O=C(OCc1cccc2c1SCc1ccccc1C2O)c1ccccc1 (centres undefined)
  IC50: 65 nM

## CC(C)N1CN(C2c3ccccc3CCc3ccccc32)n2cc(C(=O)O)c(=O)c(OCc3ccccc3)c2C1=O
  IC50: 36 nM

## CC(C)(C)[Si](C)(C)OCC1Nn2ccc(=O)c(OCc3ccccc3)c2C(=O)N1CCOC(=O)c1ccccc1 (centres undefined)
  IC50: 65 nM

## COC[C@H](C)N1C(=O)c2c(OCc3ccccc3)c(=O)ccn2NC1CO[Si](C)(C)C(C)(C)C (some centres undefined)
  IC50: 23 nM

## CC(CO[Si](C)(C)C(C)(C)C)N1CN(C(=O)OC(C)(C)C)n2ccc(=O)c(OCc3ccccc3)c2C1=O (centres undefined)
  IC50: 117 nM

## COCCN1C[C@H](C(c2ccccc2)c2ccccc2)n2cc(Br)c(=O)c(O)c2C1=O
  IC50: 114 nM

## COC(=O)c1c(OCc2ccccc2)c(=O)c(C)cn1C(CNC(=O)OC(C)(C)C)C1c2ccccc2CCc2ccccc21 (centres undefined)
  IC50: 49 nM

## CCOC(=O)c1cccc(Cl)c1CSc1ccc(F)cc1
  IC50: 44 nM

## O=C1c2c(OCc3ccccc3)c(=O)ccn2N(C2c3ccccc3CCc3ccccc32)CN1CCN1C(=O)c2ccccc2C1=O
  IC50: 88 nM

## CN1CC(C2c3ccccc3CCc3ccccc32)n2ccc(=O)c(OCc3ccccc3)c2C1=O (centres undefined)
  IC50: 88 nM

## N#CCN1CC(C2c3ccccc3CCc3ccccc32)n2ccc(=O)c(OCc3ccccc3)c2C1=O (centres undefined)
  IC50: 55 nM

Reference: ChEMBL document CHEMBL5726477, “Substituted polycyclic carbamoyl pyridone derivative prodrug” (2019)
